Data as given in US4245096A, “Bis-(2,4-dinitrophenyl)-methyl-pyridinium and quinolinium compounds” (dated 1981).

What was measured:
[1] = known compounds, background; cited from earlier work
[2] = pK value of the pH indicator betaines
[3] = absorption of the pH indicator betaines

| Structure (SMILES) | absorption [1] | solubility or pK value [1] | pK value [2] | absorption [3] |
| --- | --- | --- | --- | --- |
| CCOC(=O)C(c1ccc([N+](=O)[O-])cc1[N+](=O)[O-])c1ccc([N+](=O)[O-])cc1[N+](=O)[O-] | usable absorption | too low a solubility or too high a pK value |  |  |
| C[n+]1ccccc1[C-](c1ccc([N+](=O)[O-])cc1[N+](=O)[O-])c1ccc([N+](=O)[O-])cc1[N+](=O)[O-] |  |  | 9 | 400-800 nm |
| C[n+]1cccc([C-](c2ccc([N+](=O)[O-])cc2[N+](=O)[O-])c2ccc([N+](=O)[O-])cc2[N+](=O)[O-])c1 |  |  | 10.5 | 400-900 nm |
| C[n+]1ccc([C-](c2ccc([N+](=O)[O-])cc2[N+](=O)[O-])c2ccc([N+](=O)[O-])cc2[N+](=O)[O-])cc1 |  |  | 6.5 | 400-810 nm |

Where two headings read alike, the source gives them in different places.
